Measured values published in US20100119412A1, “Novel Chemistries, Solutions, and Dispersal Systems for Decontamination of Chemical and Biological Systems” (published 2010).

What was measured:
[1] = pKa values of acids and bases in acetonitrile, DMSO and water; conditions: comparison of the four butanediol isomers
[2] = cited from earlier work; for Water Solubility: g/100 grams H2O: Group II linear monoprotic alcohols
[3] = cited from earlier work; for pKa: solvent not stated

Molecule | Water Solubility: g/100 grams H2O [2] | pKa [3] | also measured
CC(O)CCO (centres unmarked) | – | – | pKa values of the oxygens relative to other butanediol isomers [1]: higher pKa values compared to the other butanediol isomers
CCCCCCCCO | insoluble | – | –
HClO4 | – | strong acid | –
CC#N | – | – | solubility in water ([2]; stated in words in running text): soluble in water in all proportions
CCCO | infinitely soluble | – | –
HClO | – | 7.2 | –
hydrogen superoxide | – | 4.88 | –
HClO3 | – | -1 | –
CCO | infinitely soluble | – | –
CCCCCO | 2.73 grams/100 | – | –
CCCCCCCO | 0.174 grams/100 | – | –
HClO2 | – | 2 | –
O=[N+]([O-])c1ccc(O)c([N+](=O)[O-])c1 | – | – | pKa in DMSO ([3]; 25° C., solvent DMSO (Group III), for bases, pKa of BH+): 5.1; pKa in Acetonitrile ([3]; 25° C., solvent acetonitrile (Group I), for bases, pKa of BH+): 16.7
